{"source": "patent US20250163168A1", "about": "“NOVEL ANTIBODIES AND ANTIBODY CONJUGATES FOR THE TREATMENT OF METABOLIC DISORDERS” (PFIZER INC., priority 2023, published 2025)", "target": "T1, GIPR-ECD (Homo sapiens, UniProt P48546)", "T1 construct": "the x-ray crystal structure of these antibodies in complex with GIPR-ECD was determined", "T1 sequence (P48546 22-138 limits assumed)": "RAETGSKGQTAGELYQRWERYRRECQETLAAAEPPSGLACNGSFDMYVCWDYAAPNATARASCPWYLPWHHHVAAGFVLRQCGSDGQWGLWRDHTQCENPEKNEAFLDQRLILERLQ", "assay": "Binding epitope by x-ray crystal structure and structure-based descriptor (SBD) method", "conditions": "SBD method on crystal or cryo-EM structure of the complex", "data": [{"substance": "Glucose-dependent insulinotropic polypeptide [GIP]", "values": [{"measurement": "residues in the GIPR-ECD epitope", "value": "GLN30, ALA32, LEU35, TYR36, TRP39, MET67, TYR68, TRP71, TRP90, ARG101, ARG113, HIS115, GLN130, ARG131, LEU134, LEU137, and GLN138"}]}]}
